## Binding of CDR-mutated scFvs to a peptide of the spike HR2 region

From the AlphaSeq antibody data of Li et al. 2023 (doi:10.1038/s41467-023-39022-2), copy in the FLAb collection.

Target: peptide PDVDLGDISGINAS, taken from heptad repeat 2 (HR2) of SARS-CoV-2 spike.

Parent scFv Ab-14: VH joined to VL by a (GGGGS)3 linker. Changes lie in the light chain CDRs alone.
VH: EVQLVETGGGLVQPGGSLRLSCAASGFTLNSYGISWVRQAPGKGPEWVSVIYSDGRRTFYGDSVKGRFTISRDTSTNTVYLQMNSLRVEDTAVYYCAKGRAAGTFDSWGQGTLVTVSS
VL: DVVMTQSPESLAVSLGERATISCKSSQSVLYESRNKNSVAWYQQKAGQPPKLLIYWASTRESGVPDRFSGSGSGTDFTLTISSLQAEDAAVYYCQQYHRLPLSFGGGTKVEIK

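The parent was found by panning a naive human phage display library on the peptide. These sequences belong to a second round, designed from the earlier measurements on random variants of the parent. Group labels follow the data file (Ctrl: baseline library sampled from a position-specific scoring matrix, with some repeated check sequences; En: ensemble of fine-tuned language models; GP: Gaussian process model; HC: hill climbing; Gen: genetic algorithm; Gibbs: Gibbs sampling; a sequence that several methods proposed may carry one label only). Affinity was read by AlphaSeq, a pooled yeast mating assay with surface-displayed partners. The frequency of each diploid, read from paired DNA barcodes, reflects how well the two displayed proteins bind. Scores were corrected for input abundance and mapped to Kd with protein pairs of known affinity run in the same pool. There are six technical replicates.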

Each variant is given by its three light chain CDRs, as the data file delimits them; those of the parent are KSSQSVLYESRNKNSVA, WASTRES, QQYHRLPLS.
Values are log10 of the apparent Kd in nM; lower means stronger binding.
Replicates are averaged; those with no signal do not enter the mean.
Where no diploid with the target was found in that replicate, the entry reads "ND": below detection, most likely a poor binder, though not proof of it.

| CDR-L1 | CDR-L2 | CDR-L3 | group | replicates, log10 nM | mean log10 Kd (nM) | control signals |
|---|---|---|---|---|---|---|
| KLSQSVLYESRMKNSVA | HASTRES | QQYHRLPLS | GP_Gen | 0.13 -0.02 0.00 -0.04 -0.02 0.19 | 0.04 | 1/18 (2.22) |
| KVSPSHLYESRNKNSVA | EASTRES | QQYHRLPLS | GP_Gen | 0.44 0.36 0.22 0.15 0.37 0.52 | 0.35 | 0/18 |
| KSSQSVLYMNRDKNSVA | GASTRPS | QQYHRLPLW | Ctrl | 2.87 1.94 1.72 2.06 2.59 2.07 | 2.21 | 1/18 (2.51) |
| KLEQSNLYESRNKNSVA | NASQRLS | QQYHRLPLS | GP_Gen | 0.19 -0.04 -0.22 -0.12 -0.11 0.05 | -0.04 | 0/18 |
| KCSQSVLYESRNKNSVA | DASTRES | QQYQRLPLS | GP_HC | -0.29 -0.55 -0.65 -0.33 -0.41 -0.44 | -0.45 | 2/18 (2.28) |
| KLQQSHEYESRNKNSVA | NASTRES | QQYHRLPLS | GP_Gen | 0.26 0.37 0.32 0.06 0.41 0.19 | 0.27 | 0/18 |
| KQSQSVGYGSRNKWSVA | EASTRES | QQYHRLPLS | GP_Gibbs | 0.78 0.59 0.54 0.45 0.51 0.53 | 0.57 | 1/18 (2.81) |
| KLEQSELYESRNKNSVA | NASTRES | QQYHRLPLS | GP_Gen | 0.54 0.15 0.22 0.13 0.61 0.16 | 0.30 | 2/18 (2.34) |
| KLSQSWLYESRNSNSVA | NASQRES | QQYHRLPLS | GP_Gen | 0.75 0.41 0.47 0.15 0.42 0.64 | 0.47 | 1/18 (2.76) |
| TISQMTSLFSQSIQNVA | EVSTREP | QQYDRLPLA | En_Gen | 0.52 0.18 0.16 0.29 0.05 0.60 | 0.30 | 1/18 (1.94) |
| VFQQQWDGHTLTNSSVA | NVDERME | QQYYRLPLL | En_Gibbs | 0.68 0.39 0.24 0.62 0.51 0.37 | 0.47 | 0/18 |
| KSSQSVLYESMFKNSVA | WATEREA | QQYHRLPLS | Ctrl | 1.39 1.34 1.29 1.04 1.77 1.12 | 1.32 | 1/18 (2.77) |
| MLDNCQAGYYQKNNNVA | EMNMRCY | QQYGRLPLM | En_Gibbs | 1.77 2.73 ND 2.71 ND ND | 2.40 | 0/18 |
| KSSQSVLYESRNKNSVA | SASTRES | QQGHRLPLS | Ctrl | ND ND ND ND 2.04 ND | 2.04 | 0/18 |
| KISMTYRYESTASNSIA | EMTTRAE | QSYHRLPLS | En_HC | ND ND 1.92 ND 2.19 1.70 | 1.94 | 0/18 |
| KLSQSYLYESRNKNSVA | NASTRED | QQYHRLPLS | GP_Gen | -0.22 -0.17 -0.36 -0.35 -0.37 -0.24 | -0.28 | 0/18 |
| KVSGSVLYESRNKNSVA | DASTRES | QQYHRLPLS | GP_Gen | -0.14 -0.19 -0.18 -0.30 -0.06 0.00 | -0.14 | 1/18 (3.69) |
| HVSNLLTDEMTREYNIA | ETSHVEE | QQYERLPLI | En_Gibbs | 0.66 0.87 0.89 0.49 0.57 0.82 | 0.72 | 2/18 (2.88) |
| KPSQSVLYESRNKNSVA | YASTRES | QQYHRLPLS | Ctrl | -0.07 -0.34 -0.45 -0.40 -0.40 -0.31 | -0.33 | 1/18 (2.27) |
| QIYQAMHTLSQIKDNVA | DVNERGS | QQYFRLPLS | En_Gen | 0.44 0.25 0.25 -0.04 0.16 0.25 | 0.22 | 1/18 (3.01) |
| KLMSVTGTEKVHGNNVA | EMETREK | QQYNRLPLA | En_Gen | 0.08 0.21 0.18 -0.02 0.20 0.54 | 0.20 | 0/18 |
| MISQLYNMGQFAINSVA | QASQRCN | QQYDRLPLI | En_Gen | 1.51 1.29 1.63 1.50 1.39 2.18 | 1.58 | 3/18 (2.90) |
| KISGYLNKESKNSNSVA | EMVNRES | QQYDRLPLS | En_HC | 1.83 1.27 0.92 1.62 1.29 2.15 | 1.51 | 0/18 |
| TLTQVQGMESHNKDNVA | DLSTRGS | QQYHRLPLS | En_HC | 0.24 0.38 0.21 0.05 -0.19 0.23 | 0.15 | 1/18 (1.55) |
| KLPQSFLYESRNKNSVA | GASTRES | QQYHRLPLS | GP_Gen | 1.06 0.60 0.43 0.02 0.19 0.30 | 0.43 | 1/18 (2.72) |
| MLSDLVKMGARNTNSVA | DNSTRGS | QQYDRLPLS | En_HC | 1.67 1.92 2.26 1.56 1.90 3.10 | 2.07 | 1/18 (2.48) |
| ESSQSVLSESRNKNSVA | GASTRES | NQYHRLPLS | Ctrl | 0.08 0.31 0.64 0.50 0.57 0.24 | 0.39 | 3/18 (3.50) |
| MISNVMNTLTRQGNNVA | DLAERED | QQYFRLPLS | En_Gen | 0.69 0.46 0.46 0.37 0.43 0.55 | 0.49 | 0/18 |
| KLYEMVASTMMNIRNVA | DNSTREQ | QQYNRLPLS | En_Gen | 1.62 2.02 1.85 0.91 1.71 0.89 | 1.50 | 1/18 (2.29) |
| KSSQSVLYESRNKNSVA | DATTREW | QQYHRLPLS | Ctrl | 0.47 0.48 0.42 0.08 0.33 0.54 | 0.39 | 3/18 (2.68) |
| MISQLFMYGSRNYNSVA | QASTREP | QQYDRLPLI | En_HC | 0.76 1.20 0.96 1.11 1.33 1.13 | 1.08 | 0/18 |
| KFSQSWWYESRVKNNVA | NASQRES | QCYHRLPLS | GP_Gibbs | 0.75 0.52 1.04 0.79 0.98 0.74 | 0.80 | 1/18 (3.47) |
| KILQEVTGHSRNKNSVA | HNSTRED | QQYDRLPLS | En_HC | ND ND 2.88 ND ND ND | 2.88 | 0/18 |
| KLMQGWLYESRNKNSVA | NASKRLE | QQYHRLPLS | GP_Gibbs | 0.76 0.26 0.45 0.22 0.40 0.40 | 0.42 | 0/18 |
| KSSPVVEYESENKNSVA | NASTRMS | QQYHRLPLS | GP_HC | 0.63 0.27 0.52 0.23 0.47 0.49 | 0.43 | 2/18 (2.39) |
| KFANQLVYWNQGQNAIA | DVTNKSA | QQYLRLPLM | En_Gibbs | 0.58 0.52 0.47 0.45 0.32 0.71 | 0.51 | 2/18 (3.69) |
| KLAQSTLYESRNKNSVA | LASTRES | QQYHRLPLS | GP_HC | 1.21 1.73 2.08 1.57 1.22 1.57 | 1.56 | 0/18 |
| SLMQVGGYESNNHNSIA | DLRTRES | QQYHRLPLS | En_HC | 0.84 1.24 1.42 0.61 1.23 1.24 | 1.09 | 0/18 |
| KLPQSQLYESRNKNSVA | NASQRLS | QQYHRLPLS | GP_Gen | 0.18 -0.32 -0.01 -0.36 -0.12 0.10 | -0.09 | 0/18 |
| HINTADVGVSDHYNAVA | EQRIAGI | QQYFRLPLS | En_Gibbs | 0.59 -0.19 0.03 -0.08 -0.18 0.33 | 0.08 | 0/18 |
| KVSQSVLYGDRNKSSVA | QASTREM | QQYHRLPLS | GP_Gibbs | 1.53 0.58 0.97 0.42 0.61 0.63 | 0.79 | 3/18 (2.06) |
| KLMQSVLYESRNKNSVA | NASTRLS | QQYHRLPLS | GP_Gen | -0.27 -0.36 -0.39 -0.51 -0.39 -0.38 | -0.38 | 1/18 (2.26) |
| NFSQMVLTGSTLRNSVA | HASTREE | QQYHRLPLI | En_HC | 0.55 0.74 0.76 0.33 0.59 0.78 | 0.62 | 1/18 (2.78) |
| QMRLLYENSGHRMNSIA | DETMKPD | QQYVRLPLH | En_Gibbs | 0.86 0.66 1.30 1.15 0.64 0.89 | 0.92 | 0/18 |
| KSSQSLLYESRNKNSVA | WASTRES | QQYHHLPLS | Ctrl | 1.18 0.90 1.09 1.22 1.98 2.13 | 1.42 | 0/18 |
| KLTMITGLEKVSTNNVA | EMETREH | QQYNRLPLS | En_Gen | 0.84 0.66 0.59 0.38 0.52 0.55 | 0.59 | 0/18 |
| KSSQSVLYERVNKNSVA | WASTRES | QQYHYLPLS | Ctrl | ND ND ND ND ND ND | ND | 0/18 |
| KILQSVLYESRNKNSVA | HASTRES | QQYHRLPLS | GP_HC | 0.82 0.32 0.20 0.17 0.15 -0.11 | 0.26 | 0/18 |
| KSSQVVLYESHNKNSVA | NASTRMS | QQYHRLPLS | GP_HC | 0.65 0.26 0.33 0.28 0.36 0.60 | 0.41 | 3/18 (2.19) |
| HLSPSVPYESRNKNSVA | NASTRES | QQYHRLPLS | GP_HC | -0.22 -0.32 -0.46 -0.57 -0.21 -0.14 | -0.32 | 0/18 |

The last 8 entries again:

| CDR-L1 | CDR-L2 | CDR-L3 | group | replicates, log10 nM | mean log10 Kd (nM) | control signals |
|---|---|---|---|---|---|---|
| NFSQMVLTGSTLRNSVA | HASTREE | QQYHRLPLI | En_HC | 0.55 0.74 0.76 0.33 0.59 0.78 | 0.62 | 1/18 (2.78) |
| QMRLLYENSGHRMNSIA | DETMKPD | QQYVRLPLH | En_Gibbs | 0.86 0.66 1.30 1.15 0.64 0.89 | 0.92 | 0/18 |
| KSSQSLLYESRNKNSVA | WASTRES | QQYHHLPLS | Ctrl | 1.18 0.90 1.09 1.22 1.98 2.13 | 1.42 | 0/18 |
| KLTMITGLEKVSTNNVA | EMETREH | QQYNRLPLS | En_Gen | 0.84 0.66 0.59 0.38 0.52 0.55 | 0.59 | 0/18 |
| KSSQSVLYERVNKNSVA | WASTRES | QQYHYLPLS | Ctrl | ND ND ND ND ND ND | ND | 0/18 |
| KILQSVLYESRNKNSVA | HASTRES | QQYHRLPLS | GP_HC | 0.82 0.32 0.20 0.17 0.15 -0.11 | 0.26 | 0/18 |
| KSSQVVLYESHNKNSVA | NASTRMS | QQYHRLPLS | GP_HC | 0.65 0.26 0.33 0.28 0.36 0.60 | 0.41 | 3/18 (2.19) |
| HLSPSVPYESRNKNSVA | NASTRES | QQYHRLPLS | GP_HC | -0.22 -0.32 -0.46 -0.57 -0.21 -0.14 | -0.32 | 0/18 |

The authors averaged sequences with at least three values out of six and counted those with two or fewer as poor binders.
Of ten entries with the parent sequence, four were seen in most replicates (averages 0.34 to 2.37), three in one and three in none, so single entries are noisy.
Three control strains display no target. For all light chain designs, 4% of the pairings with them gave a signal, with a median of 2.64 and one signal in twenty below 1.59, so weak values seen in few replicates may be background. The control count says in how many pairings with the empty strains this scFv gave a signal, with their mean in brackets.
The range of this assay differs from that of the first round, and the authors advise against merging the two.